According to ChEMBL document CHEMBL4402597, “Truncated (N)-Methanocarba Nucleosides as Partial Agonists at Mouse and Human A3 Adenosine Receptors: Affinity Enhancement by N6-(2-Phenylethyl) Substitution” (J Med Chem, 2020):

Target: T1, Adenosine receptor A3 (Mus musculus, UniProt Q61618)
T1 sequence (Q61618 whole entry): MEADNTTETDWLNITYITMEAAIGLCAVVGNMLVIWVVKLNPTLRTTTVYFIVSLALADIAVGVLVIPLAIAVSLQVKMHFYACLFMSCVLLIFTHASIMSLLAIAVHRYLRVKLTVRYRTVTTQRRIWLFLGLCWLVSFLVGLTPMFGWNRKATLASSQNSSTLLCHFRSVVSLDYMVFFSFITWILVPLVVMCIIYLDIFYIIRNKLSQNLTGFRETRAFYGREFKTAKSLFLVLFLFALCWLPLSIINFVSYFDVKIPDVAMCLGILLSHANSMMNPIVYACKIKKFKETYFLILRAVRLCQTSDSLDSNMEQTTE

SMILES: COc1cc(CCNc2nc(C#Cc3ccccc3)nc3c2ncn3[C@H]2[C@H](O)[C@H](O)[C@@H]3C[C@@H]32)ccc1O
- Ki: 17.8 nM
